The numbers were not newly measured in US9541834B2, “Ionic thermal acid generators for low temperature applications” (Rohm and Haas Electronic Materials LLC, priority 2012, dated 2017), which cites them from elsewhere.

For the series the following is noted: pKa of conjugate acid (BH)+ of the base of the TAG, aqueous solution, about room temperature.

Turning to “Pyridinium perfluorobutanesulfonate [Pyridinium PFBuS]”, the “pKa (base)” value was 5.14.
